The results in this text go back to patent US11331299B2, “Medicinal use of serrulatane diterpenes” (The University of Sydney, priority 2016, dated 2022).

This test relates to human pancreatic carcinoma MIA PaCa-2. Conditions: Day 8, 80 mg/kg Q4D x 4 IP, mice No. 1-8.

Take `Nc1ccn([C@@H]2O[C@H](CO)[C@@H](O)C2(F)F)c(=O)n1` [Gemcitabine, reference compound]: the “Tumor Volume, individual mice” value came out at 114 mm3.
